Yeast mating assay B: variants of the scFv Ab-14

Target peptide (SARS-CoV-2 spike, HR2 region): PDVDLGDISGINAS

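The starting antibody came from a phage panning campaign against this peptide. The variants were designed computationally from a first round of random CDR variants and then made and measured. Their group label is 14L_En_Gen (En: ensemble of fine-tuned language models; Gen: genetic algorithm). AlphaSeq pools MATa yeast showing the antibodies with MATalpha yeast showing the peptide. Pairs that bind mate more often; barcode pairs of the diploids are counted by sequencing. A regression on co-assayed BCL2-family reference pairs converts the normalised counts of each replicate to an apparent Kd. There are six technical replicates.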

The variants keep the heavy chain, the linker and the frameworks of Ab-14 (scFv order VH, the linker GGGGSGGGGSGGGGS, VL).
VH: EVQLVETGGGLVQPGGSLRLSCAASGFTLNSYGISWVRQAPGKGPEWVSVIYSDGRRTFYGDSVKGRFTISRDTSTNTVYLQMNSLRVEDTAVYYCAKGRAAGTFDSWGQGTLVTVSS
VL: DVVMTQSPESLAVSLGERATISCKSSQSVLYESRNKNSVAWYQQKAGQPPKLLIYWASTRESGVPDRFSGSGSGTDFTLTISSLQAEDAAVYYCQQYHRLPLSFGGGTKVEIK

Variants are written as CDR1, CDR2 and CDR3 of the light chain (limits as in the source). Parent: KSSQSVLYESRNKNSVA, WASTRES, QQYHRLPLS.
Values are log10 of the apparent Kd in nM; lower means stronger binding.
Averages over replicates are reported, and they cover detected replicates only.
"n.d." marks a missing value. The strain was present, yet no cells mated with the target were sequenced in that replicate, which points to weak or no binding.

| CDR-L1 | CDR-L2 | CDR-L3 | replicates, log10 nM | mean, log10 nM | empty controls |
|---|---|---|---|---|---|
| TIGGTLMFGMRNRSNVA | EVSERLN | QQYDRLPLI | 1.89 / 2.47 / 1.98 / 2.58 / 2.21 / 2.98 | 2.35 | 2/18 (2.76) |
| TITMFMDNLTHNRNNVA | DTSTLGS | QSYDRLPLS | 3.71 / 2.55 / 3.09 / 2.93 / 2.39 / 2.59 | 2.88 | 0/18 |
| TISQLWNMGTFAINSVA | QAEIRNA | QQYDRLPLA | 1.93 / 1.40 / 1.55 / 1.04 / 1.36 / 1.59 | 1.48 | 0/18 |
| TISQLMNMGQFAINSVA | QASIRNM | QQYDRLPLM | 1.04 / n.d. / 0.81 / 0.71 / n.d. / 1.86 | 1.11 | 0/18 |
| MISQLYNMGQFAINSVA | QASTRNE | QQYDRLPLI | 1.43 / 3.71 / 1.51 / 1.05 / 1.34 / 1.51 | 1.76 | 0/18 |
| KIGGTLNTLMHQKNNVA | DLVTREN | QQYHRLPLS | 0.07 / 0.00 / -0.14 / -0.10 / -0.32 / 0.02 | -0.08 | 0/18 |
| MISNVMNTLTRQGNNVA | DLTEREE | QQYFRLPLS | 0.35 / 0.48 / 0.19 / 0.27 / 0.41 / 0.60 | 0.39 | 1/18 (3.78) |
| KIGMTLNQMVEKKNNVA | DLVEREN | QQYHRLPLS | 0.11 / 0.18 / 0.10 / 0.11 / 0.29 / 0.30 | 0.18 | 0/18 |
| TISQMTSLFSMSINNVA | EVSTREE | QQYDRLPLV | 1.02 / 0.53 / 0.72 / 0.47 / 1.01 / 0.99 | 0.79 | 2/18 (3.33) |
| HMSMLTLQGQRHRNSVA | QMTTRVN | QQYDRLPLI | 1.05 / 1.50 / 1.03 / 1.57 / 1.99 / 1.66 | 1.47 | 0/18 |
| KLGATMNTESTKRNNVA | DLVQREN | QQYFRLPLS | 1.09 / 1.22 / 1.37 / 2.04 / 0.64 / 0.91 | 1.21 | 1/18 (1.25) |
| KVSGFMRGLMMRKDSIA | DNETRQS | QQYDRLPLS | 0.93 / n.d. / 0.30 / n.d. / 0.28 / 2.10 | 0.90 | 0/18 |
| KISQMTRVGSTHHNSIA | EEATRAK | QQYHRLPLA | 1.62 / 1.76 / 1.46 / 2.04 / 1.31 / 4.37 | 2.09 | 0/18 |
| IVSQLMIWGMKLKNSIA | EAETRLN | QQYERLPLF | n.d. / n.d. / n.d. / n.d. / n.d. / n.d. | n.d. | 0/18 |
| HMSTLTLGGMRQRNSVA | QMTTREN | QQYDRLPLS | 0.76 / 0.53 / 0.21 / 0.42 / 0.39 / 0.61 | 0.49 | 1/18 (1.77) |
| TISQLHNMGTFAINSVA | QAEIRNN | QQYDRLPLA | 1.79 / 3.09 / 1.30 / 1.71 / 2.12 / 1.54 | 1.93 | 0/18 |
| KLSMITGHLSIAKNNVA | EMETREN | QQYDRLPLS | 0.15 / 0.74 / 0.80 / 0.89 / 0.36 / 0.94 | 0.65 | 1/18 (2.24) |
| VLGEMYGNMVMKHSSIA | DNTTRQD | QQYDRLPLS | 3.94 / 1.70 / n.d. / 3.31 / n.d. / n.d. | 2.99 | 0/18 |
| MVNGITDHLSKNTNSVA | ETVTREE | QQYDRLPLS | 0.94 / 1.09 / 0.84 / 0.89 / 1.12 / 1.24 | 1.02 | 1/18 (4.31) |
| KLRTVTGTEKVIGNNVA | EMETREK | QQYNRLPLS | 1.94 / 1.30 / 1.50 / 2.14 / 1.66 / 1.45 | 1.66 | 0/18 |
| KITSTMRFEQKNSNNIA | EVSMRTK | QQYVRLPLA | 0.28 / 0.23 / 0.36 / 0.24 / 0.17 / 0.22 | 0.25 | 0/18 |
| QISQVMGLSMHGVNNVA | QMETRTD | QQYDRLPLS | 0.95 / 0.68 / 0.18 / 0.50 / 0.50 / 0.68 | 0.58 | 1/18 (2.62) |
| TISQMTSLFSQSINNVA | EVSTREK | QQYDRLPLM | 0.57 / 0.75 / 0.18 / 0.53 / 0.65 / 0.52 | 0.53 | 3/18 (2.46) |
| TLYGLTNSMSKNKDNVA | EMSTREA | QQYDRLPLI | 1.23 / 1.53 / 0.72 / 1.07 / 2.28 / 1.62 | 1.41 | 1/18 (1.71) |
| HMSALTLMGSRNRNSVA | QMTTREN | QQYDRLPLV | 3.41 / 1.61 / 1.40 / 0.94 / 2.42 / 1.45 | 1.87 | 0/18 |
| MISQVYNMGSFAINSVA | QASQRNA | QQYDRLPLM | 1.17 / 0.90 / 1.27 / 0.79 / 0.88 / 1.17 | 1.03 | 1/18 (2.94) |
| TITMFMDNLTQNRNNVA | DTSTLGK | QSYDRLPLS | n.d. / 1.74 / 1.11 / 1.81 / n.d. / 3.02 | 1.92 | 0/18 |
| NIYQAMHTLMQARNNVA | DVTNRNQ | QQYFRLPLS | 0.74 / 0.73 / 0.50 / 0.89 / 1.22 / 0.80 | 0.81 | 0/18 |
| TLSQMSGVEAVKHNNVA | ENSTREK | QQYDRLPLS | n.d. / n.d. / n.d. / n.d. / 4.07 / 2.01 | 3.04 | 1/18 (1.44) |
| TISQLHNMGTFAINSVA | QASIRNA | QQYDRLPLQ | 0.75 / 0.57 / 0.94 / 0.68 / 0.74 / 1.30 | 0.83 | 1/18 (2.81) |
| MISQISSMGQFAKNSVA | QASLRNN | QQYDRLPLI | 0.98 / 1.06 / 0.76 / 0.66 / 0.67 / 0.34 | 0.75 | 0/18 |
| MLGGNLMHEMMQKNNVA | HMTTRVE | QQYHRLPLI | 1.39 / 1.48 / n.d. / 1.36 / 1.91 / 1.44 | 1.52 | 0/18 |
| SISGFMKSLSAHINNVA | DMTNRED | QQYERLPLS | 0.84 / 1.08 / 0.92 / 0.47 / 0.69 / 0.67 | 0.78 | 2/18 (2.22) |
| HMSMLTLQGVRHVNSVA | QMTTREN | QQYDHLPLS | 0.63 / 0.58 / 0.62 / 0.72 / 0.73 / 0.60 | 0.65 | 0/18 |
| MIYGAQRELGLTANSIA | DNVTRYN | QQYERLPLS | n.d. / 2.53 / n.d. / 2.76 / n.d. / n.d. | 2.65 | 0/18 |
| MISQVMNTLTRNTNNVA | DLTEREK | QQYFRLPLS | 0.74 / 0.51 / 0.35 / 0.43 / 0.43 / 0.60 | 0.51 | 0/18 |
| KISQMVRVGSTHVNSIA | EEVTRAK | QQYHRLPLS | 0.80 / 0.95 / 0.42 / 1.02 / 0.63 / 0.76 | 0.76 | 0/18 |
| MISQLYNMGTFAINSVA | QASIRNE | QQYDRLPLS | 1.81 / 1.78 / 1.24 / 1.46 / 1.65 / 1.85 | 1.63 | 0/18 |
| KVSFFNEQVTKKGSNVA | DNETRES | QQYFRLPLS | -0.03 / -0.02 / 0.14 / -0.25 / -0.21 / 0.07 | -0.05 | 2/18 (3.82) |
| QLSMITGHYSMRKNNVA | EMETREN | QQYDRLPLS | 0.83 / 0.79 / 0.72 / 0.90 / 0.81 / 0.79 | 0.81 | 0/18 |
| TISQVMNTLTRHGNNVA | DLAEREH | QQYFRLPLS | 1.10 / 0.81 / 0.43 / 0.55 / 0.41 / 0.69 | 0.66 | 0/18 |
| MISQLYNMGQFAINSVA | QASVRNE | QQYDRLPLQ | 1.05 / 1.71 / 1.23 / 0.94 / 0.86 / 2.18 | 1.33 | 0/18 |
| MMSQVQGQGTRHRNNVA | QTSTREP | QQYDRLPLI | 2.51 / n.d. / 1.59 / n.d. / n.d. / 1.85 | 1.98 | 0/18 |
| IVSQLMLWGWSAKNSIA | EAVTRLN | QQYDRLPLI | n.d. / 2.05 / 2.27 / 1.55 / n.d. / n.d. | 1.95 | 0/18 |
| KISMLINTTFEQSNNVA | EMATREQ | QQYNRLPLS | 0.46 / 0.68 / 0.30 / 1.74 / 1.32 / 1.58 | 1.01 | 0/18 |
| KLTMITGLEKVSGNNVA | EMETRER | QQYNRLPLA | 0.38 / 0.31 / -0.16 / -0.07 / 0.17 / 0.10 | 0.12 | 0/18 |

The opening 5 entries, copied out:

CDR-L1	CDR-L2	CDR-L3	replicates, log10 nM	mean, log10 nM	empty controls
TIGGTLMFGMRNRSNVA	EVSERLN	QQYDRLPLI	1.89 / 2.47 / 1.98 / 2.58 / 2.21 / 2.98	2.35	2/18 (2.76)
TITMFMDNLTHNRNNVA	DTSTLGS	QSYDRLPLS	3.71 / 2.55 / 3.09 / 2.93 / 2.39 / 2.59	2.88	0/18
TISQLWNMGTFAINSVA	QAEIRNA	QQYDRLPLA	1.93 / 1.40 / 1.55 / 1.04 / 1.36 / 1.59	1.48	0/18
TISQLMNMGQFAINSVA	QASIRNM	QQYDRLPLM	1.04 / n.d. / 0.81 / 0.71 / n.d. / 1.86	1.11	0/18
MISQLYNMGQFAINSVA	QASTRNE	QQYDRLPLI	1.43 / 3.71 / 1.51 / 1.05 / 1.34 / 1.51	1.76	0/18

Of ten entries with the parent sequence, four were seen in most replicates (averages 0.34 to 2.37), three in one and three in none, so single entries are noisy.
The authors' rule: three or more of the six replicates give a measured affinity, fewer mean a poor binder.
Three control strains display no target. For all light chain designs, 4% of the pairings with them gave a signal, with a median of 2.64 and one signal in twenty below 1.59, so weak values seen in few replicates may be background. Also given: how often the same scFv was detected with the empty control strains, with their mean in brackets.
The range of this assay differs from that of the first round, and the authors advise against merging the two.

The measurements come from Li et al. 2023 (doi:10.1038/s41467-023-39022-2) through the FLAb antibody collection.